# Measured values reported in publication PMC3402509 (Investigational New Drugs, 2011).
# Conditions: not considered dose-limiting
substance,measurement,value
cetuximab: a monoclonal antibody recognizing the EGFR ligand-binding domain,"grade 3 infusion reaction to cetuximab, patients",another patient
